The source of these data is PubChem BioAssay AID602141 (Sanford-Burnham Center for Chemical Genomics, 2011).

Only a part is listed here, and it is no random draw. Activity calls are given as the source filed them.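 Rule for the calls: active = corrected activity change at or below -50% at 5 µM; inactive = the rest.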

The assay can be described thus: cytotoxicity in KKLEB CF airway cells, primary screen, cytotoxicity control for CF NF-kB inhibitor project, cell-based, uHTS, fluorescence assay plates (AID 602141). To be noted: KKLEB CF airway cells viability, ATPlite luminescence, overnight; at 5 µM; stronger effect = lower value; cells stimulated with P. aeruginosa culture filtrate. A general note: In ATP-based viability assays light output follows the ATP content of the culture.
In the case of `O=C(O)C(O)c1ccc(N(CCCl)CCCl)cc1` (stereo not drawn), the activity change (cytotoxicity) is inactive: -7.1%.

As to `CCOC(=O)Nc1ccc([As](=O)(O)O)c(O)c1`, the activity change (cytotoxicity) is inactive: -8.8%.

As to `O=[N+]([O-])c1cc([N+](=O)[O-])c(-c2ccn[nH]2)s1`, the activity change (cytotoxicity) is inactive: -0.9%.

`CCN(CC)C(=S)SC(NC=O)C(Cl)(Cl)Cl` (stereo not drawn): the activity change (cytotoxicity) was inactive: 6.2%.

Consider `O=C(OC1CN2CCC1CC2)c1cccc2[nH]cnc12` (stereo not drawn), for which the activity change (cytotoxicity) is inactive: -1.5%.

`CC(C)NC(=O)NP(=O)(Oc1ccccc1)Oc1ccccc1`: the activity change (cytotoxicity) is inactive: -1.3%.

`CC(C)c1ccc(OP(=O)(Nc2ccccn2)Oc2ccccc2F)cc1` (stereo not drawn): the activity change (cytotoxicity) is inactive: 1.1%.

With `COC(=O)C1(C)COP(=O)(N2CCCCCC2)OC1` (stereo not drawn), the activity change (cytotoxicity) is inactive: -0.4%.

In the case of `ClCCSc1nnc(-c2cccnc2)o1`, the activity change (cytotoxicity) was inactive: 6.6%.

On to `Cc1ccc2nc3c(c(C)c2c1)CC(C(Cl)Cl)S3` (stereo not drawn), for which the activity change (cytotoxicity) is inactive: -4.2%.

`Cc1ccc(OP(=O)(Nc2ccc([N+](=O)[O-])cn2)Oc2ccc(C)cc2)cc1`: the activity change (cytotoxicity) is inactive: -5.7%.

As for `COc1cc(C(=O)NCC2(N3CCOCC3)CCCCC2)ccc1OCC(C)C`, the activity change (cytotoxicity) is inactive: -0.3%.

`O=[N+]([O-])c1ccc(-c2cc([N+](=O)[O-])c(O)c([N+](=O)[O-])c2)cc1`: the activity change (cytotoxicity) was inactive: -5.2%.

Take `C[As](=O)(O)c1cccc(C(=O)O)c1`: the activity change (cytotoxicity) is inactive: 0.3%.

Turning to `O=[As](O)(c1ccc(O)cc1)c1ccccc1O`, the activity change (cytotoxicity) was inactive: 14.5%.

With `COc1ccc(N/C(=N/P(=O)(N2CCOCC2)N2CCOCC2)N2CCOCC2)cc1`, the activity change (cytotoxicity) was inactive: 13.2%.

`O=[N+]([O-])c1cc(Oc2ccc([N+](=O)[O-])cc2C(F)(F)F)cc([N+](=O)[O-])c1`: the activity change (cytotoxicity) was inactive: 15.8%.

Consider `COc1cc(I)ccc1[As](=O)(O)O`, for which the activity change (cytotoxicity) is inactive: -3.4%.

Take `COc1ccc2nc(NP(=O)(c3ccccc3)c3ccccc3)sc2c1`: the activity change (cytotoxicity) is inactive: 11.2%.

For the compound `O=P1(N(CCCl)CCCl)OCCCN1CCCl` (stereo not drawn), the activity change (cytotoxicity) was inactive: 4%.

As to `O=P1(N(CCCl)CCCl)Nc2ccccc2N1`, the activity change (cytotoxicity) is inactive: 7.6%.

Take `Cc1cc(=O)[nH]c(N[N+](=O)[O-])n1`: the activity change (cytotoxicity) is inactive: 9.3%.

With `O=C(OC1CN2CCC1CC2)C12CC3CC(CC(C3)C1)C2` (stereo not drawn), the activity change (cytotoxicity) is inactive: -4.4%.

For the compound `Cc1c2c(nc3ccccc13)SC(C(Cl)Cl)C2` (stereo not drawn), the activity change (cytotoxicity) is inactive: -37.5%.

`CCOP(=O)(Nc1cccc2ccccc12)OCC`: the activity change (cytotoxicity) is inactive: 0.6%.

In the case of `COc1cc(C2NCCC3(OCCO3)C2(C)C)cc(OC)c1OC` (stereo not drawn), the activity change (cytotoxicity) was inactive: 2.6%.

As to `CCCOP(=S)(Nc1nc(N)cc(=O)[nH]1)OCCC`, the activity change (cytotoxicity) was inactive: -4%.

On to `Cc1ccc(NCCc2c([N+](=O)[O-])cc([N+](=O)[O-])cc2[N+](=O)[O-])cc1`, for which the activity change (cytotoxicity) was inactive: -2.9%.

Take `Nc1cccc2c([As](=O)(O)O)cccc12`: the activity change (cytotoxicity) was inactive: -1.9%.

Regarding `O=[As](O)(c1cccc(O)c1)c1cccc(O)c1`, the activity change (cytotoxicity) was inactive: -4.9%.

As to `Cc1cccc(OCC(=O)OC2CN3CCC2CC3)c1` (stereo not drawn), the activity change (cytotoxicity) is inactive: 6.2%.

As for `CS(=O)(=O)c1ccc(Cl)c(NC(=O)COC(=O)C(O)(c2ccccc2)c2ccccc2)c1`, the activity change (cytotoxicity) is inactive: -2.4%.

For the compound `COc1cc(C(=O)NCC2(N3CCOCC3)CCCCC2)cc(Cl)c1OC(C)C`, the activity change (cytotoxicity) was inactive: -0.3%.

As to `O=[As](O)(O)c1cccnc1`, the activity change (cytotoxicity) was inactive: 10.2%.

`O=C(OC1CN2CCC1CC2)c1ccc(Cl)cc1` (stereo not drawn): the activity change (cytotoxicity) was inactive: -10.3%.

Consider `CN(C(=O)Cc1ccc(Cl)c(Cl)c1)[C@H]1CC[C@@]2(CCCO2)C[C@@H]1N1CCCC1`, for which the activity change (cytotoxicity) was inactive: -2.7%.

Take `CN(C)C(=O)c1cc([N+](=O)[O-])cc2c1-c1c(cc([N+](=O)[O-])cc1[N+](=O)[O-])C2=O`: the activity change (cytotoxicity) was inactive: -10%.

For `O=[N+]([O-])c1ccc2c(c1)nnn2O`, the activity change (cytotoxicity) was inactive: 4.2%.

Take `CN(C(=O)Cc1ccccc1)[C@@H]1CC[C@]2(CCCO2)C[C@H]1N1CCCC1`: the activity change (cytotoxicity) is inactive: -8.9%.

In the case of `CCOP1(=S)c2c(C)nn(CCC#N)c2N=C(c2ccc(F)cc2)N1C` (stereo not drawn), the activity change (cytotoxicity) was inactive: -8.6%.

On to `N#CCCN(C(=O)COC(=O)C(O)(c1ccccc1)c1ccccc1)c1ccc(F)cc1`, for which the activity change (cytotoxicity) was inactive: 3.4%.

For the compound `NC(=O)Nc1ccc([As](=O)(O)O)cc1`, the activity change (cytotoxicity) was inactive: -6.5%.

On to `O=C(O)COc1ccc([As](=O)(O)O)cc1[N+](=O)[O-]`, for which the activity change (cytotoxicity) is inactive: 12.5%.

`Nc1ccccc1[As](=O)(O)c1ccccc1`: the activity change (cytotoxicity) was inactive: 5.6%.

In the case of `CS(=O)(=O)c1cc([N+](=O)[O-])c2no[n+]([O-])c2c1`, the activity change (cytotoxicity) is inactive: 2.4%.

Consider `O=P(Nc1nccs1)(c1ccccc1)c1nc2ccccc2s1` (stereo not drawn), for which the activity change (cytotoxicity) is inactive: -20.4%.

Consider `O=P(Nc1nccs1)(Oc1ccccc1)Oc1ccccc1`, for which the activity change (cytotoxicity) was inactive: 1.2%.

Take `CCOP1(=S)c2c(C)nn(CCC#N)c2N=C(c2ccccc2F)N1C` (stereo not drawn): the activity change (cytotoxicity) was inactive: -0.6%.

For `NS(=O)(=O)c1cccc(NC(=O)COC(=O)C(O)(c2ccccc2)c2ccccc2)c1`, the activity change (cytotoxicity) is inactive: 8.5%.

With `O=P1(Nc2ccc(Br)cn2)COc2ccccc2OC1`, the activity change (cytotoxicity) was inactive: 7.5%.

With `Cc1ccc(OCC(=O)OC2CN3CCC2CC3)cc1` (stereo not drawn), the activity change (cytotoxicity) is inactive: -4.9%.

On to `O=[As](O)(c1cccs1)c1cccs1`, for which the activity change (cytotoxicity) is inactive: 2.5%.

Take `Nc1cccc([As](=O)(O)c2ccccc2)c1`: the activity change (cytotoxicity) was inactive: 6.2%.

In the case of `O=P1(Nc2ncccn2)COc2ccccc2OC1`, the activity change (cytotoxicity) was inactive: -3.9%.

For `Cc1ccc(S(=O)(=O)N(CCCN)CCCc2c(C)nc(N)[nH]c2=O)cc1`, the activity change (cytotoxicity) is inactive: -5.9%.

With `CCCC1OP(=O)(Nc2ccccc2)OCC1CC` (stereo not drawn), the activity change (cytotoxicity) is inactive: -9.6%.

In the case of `O=C(/C=C/c1ccccc1)OC1CN2CCC1CC2` (stereo not drawn), the activity change (cytotoxicity) was inactive: -0.3%.

In the case of `CN(C)C1(CNC(=O)c2ccc(S(C)(=O)=O)cc2)CCCCC1`, the activity change (cytotoxicity) was inactive: 0.7%.

For the compound `Cc1ccc(C(=O)OC2CN3CCC2CC3)cc1` (stereo not drawn), the activity change (cytotoxicity) is inactive: 4%.

On to `CC1CCC(C(C)C)C(OP(=O)(Nc2ccccn2)c2ccccc2)C1` (stereo not drawn), for which the activity change (cytotoxicity) was inactive: 7.8%.

For the compound `Cc1nn(-c2ccccc2)c2c1P(=O)(N1CCOCC1)N(C)C(c1ccccc1)=N2` (stereo not drawn), the activity change (cytotoxicity) was inactive: -2.3%.

Turning to `CC1(CBr)Cn2c(nc3ccccc3c2=O)S1` (stereo not drawn), the activity change (cytotoxicity) was inactive: -1.5%.

Turning to `CN(C(=O)Cc1ccc(Cl)c(Cl)c1)[C@@H]1CCCC[C@H]1N1CCCC1`, the activity change (cytotoxicity) is inactive: -0.5%.

`CC(C)/C=N\N=C(\N)N[N+](=O)[O-]`: the activity change (cytotoxicity) was inactive: -1.2%.

On to `COc1ccccc1CNC(=O)COC(=O)C(O)(c1ccccc1)c1ccccc1`, for which the activity change (cytotoxicity) was inactive: -6.1%.

Regarding `CC(C)(C)C(=O)NC(Sc1ncccn1)C(Cl)(Cl)Cl` (stereo not drawn), the activity change (cytotoxicity) is inactive: 19.3%.

For `Clc1n[nH]nc1-c1nn[nH][15n]1`, the activity change (cytotoxicity) was inactive: 7%.

Turning to `O=P1(N(CCCl)CCCl)NCCC(C(F)(F)F)O1` (stereo not drawn), the activity change (cytotoxicity) is inactive: -9%.

For the compound `CN(CCCl)Cc1cc(Cl)c(NC2=NCCN2)c(Cl)c1`, the activity change (cytotoxicity) is inactive: -2.4%.

In the case of `CCOP(=O)(Nc1ccc(C)cn1)OCC`, the activity change (cytotoxicity) is inactive: 5.7%.

Take `CCOP(=O)(NC(=NC(C)c1ccccc1)NC(C)c1ccccc1)OCC` (stereo not drawn): the activity change (cytotoxicity) is inactive: 3.9%.

Regarding `CCC1=CC2Cc3nc4ccc(Cl)cc4c(N)c3C(C1)C2` (stereo not drawn), the activity change (cytotoxicity) is inactive: -8.8%.

With `O=P1(Nc2ccccn2)COc2ccccc2OC1`, the activity change (cytotoxicity) is inactive: -1.3%.
